Experimental data reported in patent US20250353827A1, “INDOLINE DERIVATIVES AS SEROTONERGIC AGENTS USEFUL FOR THE TREATMENT OF DISORDERS RELATED THERETO” (MINDSET PHARMA INC., priority 2022, published 2025).

The chains behind the UniProt entries cited, without tags or fusion partners.
UniProt P28223, whole entry: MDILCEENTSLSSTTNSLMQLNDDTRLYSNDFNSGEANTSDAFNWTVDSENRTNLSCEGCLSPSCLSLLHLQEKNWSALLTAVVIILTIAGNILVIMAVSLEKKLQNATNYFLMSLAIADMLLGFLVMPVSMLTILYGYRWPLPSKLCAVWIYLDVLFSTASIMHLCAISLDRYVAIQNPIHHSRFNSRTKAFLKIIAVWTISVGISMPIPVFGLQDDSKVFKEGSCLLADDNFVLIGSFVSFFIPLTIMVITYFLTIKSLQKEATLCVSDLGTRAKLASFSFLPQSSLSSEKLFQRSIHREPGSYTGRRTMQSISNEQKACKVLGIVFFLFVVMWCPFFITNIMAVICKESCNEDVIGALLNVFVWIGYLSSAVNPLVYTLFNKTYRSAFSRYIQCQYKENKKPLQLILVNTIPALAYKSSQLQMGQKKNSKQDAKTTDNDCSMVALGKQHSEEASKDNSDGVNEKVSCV

How the values were obtained:
[1] = target: T1, human 5-HT2A (h5-HT2A) receptor (Homo sapiens, UniProt P28223); experiment: FLIPR assay, human 5-HT2A receptor under agonist mode; assay type: cell-based; conditions: 5-HT2A (FLIPR), RFU=Fmax−Fmin
T1 construct: expressed in transfected cells; cultured under G418 and hygromycin B selection
Method: I. Assessment of the Effect of Exemplary Compounds of Formula I Targeting on Human 5-HT2A (h5-HT2A) Receptor Under Agonist Mode
• 1. Cells were cultured in cell culture medium (DMEM containing 10% FBS, 1×penicillin-streptomycin 300 μg/ml G418 and 100 μg/ml hygromycin B) at 37° C., 5% (v/v) CO2. • 2. One day before the assays, the cells were detached using TrypLE™ Express and cells were counted using cell counter. Only cells with >85% viability were used for the assay. • 3. 20000 cells/well were seeded in 30 μl/well culture medium to a 384-well cell plate and cells were incubated overnight at 37° C., 5% (v/v) CO2. • 4. On the assay day, 2×dye solution was prepared following the manual of the FLIPR® Calcium 6 Assay Kit: i. The dye was diluted with assay buffer (20 mM HEPES in 1× HBSS, PH7.4); ii. Probenecid was added to the final concentration of 5 mM; iii. Vortex vigorously for 1-2 minutes. • 5. Medium was removed from cell plate by flicking the cell plate on towel papers. • 6. […]
• i. The normalized fluorescence reading (RFU) was calculated as shown below, where Fmax and Fmin stand for maximum and minimum of calcium signal during defined time window: RFU=Fmax−Fmin. • ii. […]
Exemplary compounds of Formula I were evaluated functionally using FLIPR assay for their effect on h5-HT2A receptor under agonist mode.

[2] = Liver microsomes stability, human
Method: The objective of this study was to estimate in vitro metabolic stability of representative compounds of the application in pooled human and male mouse liver microsomes. The concentrations of parent compounds in reaction systems were evaluated by LC-MS/MS for estimating the stability in pooled human and male mouse liver microsomes. The in vitro intrinsic clearances of test compounds were determined as well.
A master solution in the “Incubation Plate” containing phosphate buffer, ultra-pure H2O, MgCl2 solution and liver microsomes was made according to Table 3. The mixture was pre-warmed at 37° C. water bath for 5 minutes.
40 μL of 10 mM NADPH solution was added to each well. The final concentration of NADPH was 1 mM. The negative control samples were prepared by replacing NADPH with 40 μL of ultra-pure H2O. Samples were prepared in duplicate. Negative controls were prepared in singlet.
The reaction was started with the addition of 4 μL of 200 μM test compounds or control compounds to each master solution to get the final concentration of 2 μM. […]
All calculations were carried out using Microsoft Excel. Peak areas were determined from extracted ion chromatograms. The slope value, k, was determined by linear regression of the natural logarithm of the remaining percentage of the parent drug vs. incubation time curve.
The in vitro half-life (in vitro t1/2) was determined from the slope value: […]

[3] = Liver microsomes stability, rat

Structure (SMILES) | RFU@10 μM [1] | Scaled-up CLint [2] | Scaled-up CLint [3]
COc1ccc2[nH]cc(CCN(C)C)c2c1 [Compound 5-MeO-DMT, 5-MeO-DMT, reference compound] | 2081 | – | –
O=C(O)Cc1ccccc1Nc1c(Cl)cccc1Cl [Diclofenac] | – | 167.98 mL/min/kg | 169.89 mL/min/kg
